This note sets out measurements from patent publication US10287286B2, “Compounds” (Takeda Pharmaceutical Company Limited, priority 2015, dated 2019).

Sequences of proteins named here, by UniProt entry; tags and fusion partners are left off.
UniProt Q96KS0, whole entry: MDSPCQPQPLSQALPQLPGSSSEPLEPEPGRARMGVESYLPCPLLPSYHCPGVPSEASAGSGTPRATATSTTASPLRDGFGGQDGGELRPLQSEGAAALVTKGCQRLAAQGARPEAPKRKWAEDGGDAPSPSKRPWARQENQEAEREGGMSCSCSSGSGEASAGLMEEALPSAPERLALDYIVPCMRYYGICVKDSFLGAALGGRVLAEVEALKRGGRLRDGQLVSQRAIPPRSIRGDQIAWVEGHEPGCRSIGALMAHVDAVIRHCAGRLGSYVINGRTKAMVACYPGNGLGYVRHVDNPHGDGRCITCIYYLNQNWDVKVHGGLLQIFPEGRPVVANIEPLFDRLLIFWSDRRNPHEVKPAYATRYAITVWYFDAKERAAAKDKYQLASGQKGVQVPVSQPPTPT

Structures can show the parent of a compound that is named as a salt.

In general, IC50 refers to the point on the concentration scale where inhibition reaches its midpoint. Read a low IC50 as inhibition by little substance.

In the test the target is PHD1 enzyme (residues 1-407) (Homo sapiens (Human), UniProt Q96KS0). The test can be described thus: PHD1 Enzyme Assay (UPLC-MS detection of hydroxylated peptide product). It is filed as biochemical. To be noted: 20 nM, 60 min pre-incubation at room temperature.

The compound `N#Cc1ccc(-c2cc(NC(=O)C3CCCO3)cc3ncnn23)cc1F` (stereo in doubt) [Example 160, (2R)-N-[5-(4-cyano-3-fluorophenyl)-[1,2,4]triazolo[1,5-a]pyridin-7-yl]oxolane-2-carboxamide] gave an IC50 of 0.248 µM.

`N#Cc1ccc(-c2cccc3ncnn23)c(N)n1` [Example 237, 6-Amino-5-{[1,2,4]triazolo[1,5-a]pyridin-5-yl}pyridine-2-carbonitrile] returned an IC50 of 0.089 µM.

As to `N#Cc1ccc(-c2cc(CNCc3cccc(Cl)c3)cc3ncnn23)cc1` [Example 188, 4-[7-({[(3-chlorophenyl)methyl]amino}methyl)-[1,2,4]triazolo[1,5-c]pyridin-5-yl]benzonitrile], the IC50 turned out to be 0.8 µM.

In turn, `N#Cc1ccc(-c2cc(C(=O)NCc3ccc(Cl)cc3)cc3ncnn23)cc1` [Example 56, N-[(4-chlorophenyl)methyl]-5-(4-cyanophenyl)-[1,2,4]triazolo[1,5-a]pyridine-7-carboxamide] yielded an IC50 of 0.167 µM.

`N#Cc1ccc(-c2cc(CNC3COC3)cc3ncnn23)cc1` [Example 185, 4-(7-{[(oxetan-3-yl)amino]methyl}-[1,2,4]triazolo[1,5-a]pyridin-5-yl)benzonitrile] showed a half-maximal inhibitory concentration (IC50) of 3.79 µM.

`N#Cc1ccc(-c2cc(N)cc3ncnn23)c(F)c1` [Example 210, 4-{7-Amino-[1,2,4]triazolo[1,5-a]pyridin-5-yl}-3-fluorobenzonitrile] yielded a concentration for half-maximal inhibition (IC50) of 0.036 µM. This IC50 is about 110-fold lower than that of the compound before.

`N#Cc1ccc(-c2cc(NC(=O)C3CC3)cc3ncnn23)c(F)c1` [Example 245, N-[5-(4-Cyano-2-fluorophenyl)-[1,2,4]triazolo[1,5-a]pyridin-7-yl]cyclopropanecarboxamide] came in with a half-maximal inhibitory concentration (IC50) of 0.107 µM. Against the preceding compound, the IC50 is about 3-fold higher.

`N#Cc1ccc(-c2cc(NCc3ccc(F)cc3)cc3ncnn23)cc1` [Example 117, 4-(7-{[(4-fluorophenyl)methyl]amino}-[1,2,4]triazolo[1,5-a]pyridin-5-yl)benzonitrile]: half-maximal inhibition (IC50) required 0.005 µM.

`Cc1cc(C#N)ccc1-c1cc(O)cc2ncnn12` [Example 249, 4-{7-Hydroxy-[1,2,4]triazolo[1,5-a]pyridin-5-yl}-3-methylbenzonitrile] returned an IC50 of 0.027 µM.

On to `N#Cc1ccc(-c2cc(CNCC3CC3)cc3ncnn23)cc1` [Example 189, 4-(7-{[(cyclopropylmethyl)amino]methyl}-[1,2,4]triazolo[1,5-a]pyridin-5-yl)benzonitrile], for which the IC50 came out at 1.3 µM.

As for `N#Cc1ccc(-c2cc(OCC3CC3)cc3ncnn23)cc1` [Example 118, 4-[7-(cyclopropylmethoxy)-[1,2,4]triazolo[1,5-a]pyridin-5-yl]benzonitrile], the IC50 was determined as 0.054 µM.

`N#Cc1ccc(-c2cc(NC(=O)C3COC3)cc3ncnn23)cc1F` [Example 167, N-[5-(4-cyano-3-fluorophenyl)-[1,2,4]triazolo[1,5-a]pyridin-7-yl]oxetane-3-carboxamide] came in with an IC50 of 0.225 µM.

On to `N#Cc1ccc(-c2nccc3ncnn23)cc1` [Example 16, 4-{[1,2,4]triazolo[1,5-c]pyrimidin-5-yl}benzonitrile], for which half-maximal inhibition (IC50) was put at 3.94 µM. This IC50 lies about 18-fold higher than the previous one.

`N#Cc1ccc(-c2c(F)ccc3ncnn23)c(F)c1` [Example 216, 3-Fluoro-4-{6-fluoro-[1,2,4]triazolo[1,5-a]pyridin-5-yl}benzonitrile] displayed an IC50 of 0.997 µM.

The compound `N#Cc1ccc(-c2cc(NC(=O)C3(C#N)CC3)cc3ncnn23)cc1F` [Example 171, 1-cyano-N-[5-(4-cyano-3-fluorophenyl)-[1,2,4]triazolo[1,5-a]pyridin-7-yl]cyclopropane-1-carboxamide] gave an IC50 of 0.058 µM.

In turn, `CN(C)CCNS(=O)(=O)c1cc(-c2ccc(C#N)cc2)n2ncnc2c1` [Example 178, 5-(4-Cyanophenyl)-N-[2-(dimethylamino)ethyl]-[1,2,4]triazolo[1,5-a]pyridine-7-sulfonamide] gave an IC50 of 4 µM.

For `CN1CCN(CCNC(=O)c2cc(-c3ccc(C#N)cc3)n3ncnc3c2)CC1` [Example 65, 5-(4-cyanophenyl)-N-[2-(4-methylpiperazin-1-yl)ethyl]-[1,2,4]triazolo[1,5-a]pyridine-7-carboxamide], half-maximal inhibition (IC50) required 0.551 µM.

Regarding `CC(=O)N1CCN(c2cc(-c3ccc(C#N)cc3)n3ncnc3c2)CC1` [Example 231, 4-[7-(4-Acetylpiperazin-1-yl)-[1,2,4]triazolo[1,5-a]pyridin-5-yl]benzonitrile], the IC50 stood at 0.199 µM.

The compound `N#Cc1ccc(-c2cc(Cl)cc3ncnn23)c(F)c1F` [Example 234, 4-{7-Chloro-[1,2,4]triazolo[1,5-a]pyridin-5-yl}-2,3-difluorobenzonitrile] registered an IC50 of 2.11 µM.

`C#Cc1ccc(-c2cccc3ncnn23)cc1` [Example 182, 5-(4-Ethynylphenyl)-[1,2,4]triazolo[1,5-a]pyridine]: the half-maximal inhibitory concentration (IC50) was 5.4 µM.

Consider `Cc1ccc(NC(=O)c2cc(-c3ccc(C#N)cc3)n3ncnc3c2)nn1` [Example 53, 5-(4-cyanophenyl)-N-(6-methylpyridazin-3-yl)-[1,2,4]triazolo[1,5-a]pyridine-7-carboxamide], for which inhibition was half-maximal at 0.387 µM (IC50).

Compound `CC(C)(C)OC(=O)N1CC2(C1)CN(c1cc(-c3ccc(C#N)cc3)n3ncnc3c1)C2` [Example 144, tert-butyl 6-[5-(4-cyanophenyl)-[1,2,4]triazolo[1,5-a]pyridin-7-yl]-2,6-diazaspiro[3.3]heptane-2-carboxylate] displayed a half-inhibitory concentration (IC50) of 0.145 µM.

In turn, `N#Cc1ccc(-c2cc(C(=O)NCC3COC3)cc3ncnn23)cc1` [Example 69, 5-(4-cyanophenyl)-N-(oxetan-3-ylmethyl)-[1,2,4]triazolo[1,5-a]pyridine-7-carboxamide] showed an IC50 of 1.11 µM.

`N#Cc1ccc(-c2cc(NC(=O)CC3CC3)cc3ncnn23)cc1F` [Example 169, N-[5-(4-cyano-3-fluorophenyl)-[1,2,4]triazolo[1,5-a]pyridin-5-yl]-2-cyclopropylacetamide] registered a 50% inhibitory concentration (IC50) of 0.049 µM.

Turning to `CC(C)CC1CCN(c2cc(-c3ccc(C#N)cc3)n3ncnc3n2)C1` (centres unmarked) [Example 97, 4-{5-[3-(2-methylpropyl)pyrrolidin-1-yl]-[1,2,4]triazolo[1,5-a]pyrimidin-7-yl}benzonitrile], the half-maximal inhibitory concentration (IC50) was found to be 0.115 µM.

With `Cc1cc(C#N)ccc1-c1ccnc2ncnn12` [Example 204, 3-methyl-4-{[1,2,4]triazolo[1,5-a]pyrimidin-7-yl}benzonitrile], the IC50 stood at 0.468 µM.

For `N#Cc1ccc(-c2cc(NCC3CC3)nc3ncnn23)cc1` [Example 84, 4-{5-[(cyclopropylmethyl)amino]-[1,2,4]triazolo[1,5-a]pyrimidin-7-yl}benzonitrile], inhibition was half-maximal at 0.005 µM (IC50). This IC50 is about 94-fold lower than that of the compound before.

Compound `CC(C)(C)OC(=O)N1CC(CNC(=O)c2cc(-c3ccc(C#N)cc3)n3ncnc3c2)C1` [Example 63, tert-butyl 3-({[5-(4-cyanophenyl)-[1,2,4]triazolo[1,5-a]pyridin-7-yl]formamido}methyl)azetidine-1-carboxylate] registered an IC50 of 0.714 µM.

As for `CN(C)CCNc1cc(-c2ccc(C#N)cc2)n2ncnc2c1` [Example 113, 4-(7-{[2-(dimethylamino)ethyl]amino}-[1,2,4]triazolo[1,5-a]pyridin-5-yl)benzonitrile], it took 0.008 µM to reach half-maximal inhibition (IC50).

With `CC(C)(C)OC(=O)N1CCN(c2cc(-c3ccc(C#N)cc3)n3ncnc3c2)CC1` [Example 143, tert-butyl 4-[5-(4-cyanophenyl)-[1,2,4]triazolo[1,5-a]pyridin-7-yl]piperazine-1-carboxylate], the IC50 was 0.437 µM. This IC50 is about 55-fold higher than that of the compound before.

`Cc1c(-c2cc(N)cc3ncnn23)ccc(C#N)c1F` [Example 228, 4-{7-Amino-[1,2,4]triazolo[1,5-a]pyridin-5-yl}-2-fluoro-3-methylbenzonitrile hydrochloride]: the concentration for half-maximal inhibition (IC50) turned out to be 0.068 µM.

Consider `N#Cc1ccc(-c2cc(NCC3CCOCC3)cc3ncnn23)cc1` [Example 104, 4-{7-[(oxan-4-ylmethyl)amino]-[1,2,4]triazolo[1,5-a]pyridin-5-yl}benzonitrile], for which the concentration for half-maximal inhibition (IC50) was found to be 0.037 µM. This IC50 lies about 1.8-fold lower than the previous one.

On to `N#Cc1ccc(-c2cc(N3CC4(COC4)C3)cc3ncnn23)cc1` [Example 141, 4-(7-{2-oxa-6-azaspiro[3.3]heptan-6-yl}-[1,2,4]triazolo[1,5-a]pyridin-5-yl)benzonitrile], for which the IC50 worked out at 0.115 µM.

Regarding `N#Cc1ccc(-c2cc(CNCC3COC3)cc3ncnn23)cc1` [Example 186, 4-(7-{[(oxetan-3-ylmethyl)amino]methyl}-[1,2,4]triazolo[1,5-a]pyridin-5-yl)benzonitrile], the midpoint of inhibition, the IC50, lay at 1.4 µM.

Take `N#Cc1ccc(-c2cc(NCCN3CCCC3)nc3ncnn23)cc1` [Example 86, 4-(5-{[2-(pyrrolidin-1-yl)ethyl]amino}-[1,2,4]triazolo[1,5-a]pyrimidin-7-yl)benzonitrile]: half-maximal inhibition (IC50) required 2.11 µM. This IC50 lies about 1.5-fold higher than the previous one.

The compound `Cc1nc(C#N)ccc1-c1cc(NC(=O)C2CC2)cc2ncnn12` [Example 253, N-[5-(6-Cyano-2-methylpyridin-3-yl)-[1,2,4]triazolo[1,5-a]pyridin-7-yl]cyclopropanecarboxamide] registered a half-inhibitory concentration (IC50) of 0.216 µM.

As to `CN1CCC(CNc2cc(-c3ccc(C#N)cc3)n3ncnc3n2)CC1` [Example 80, 4-(5-{[(1-methylpiperidin-4-yl)methyl]amino}-[1,2,4]triazolo[1,5-a]pyrimidin-7-yl)benzonitrile], inhibition was half-maximal at 3 µM (IC50).

`N#Cc1ccc(-c2cc(SCc3ccccc3)cc3ncnn23)cc1` [Example 176, 4-[7-(Benzylsulfanyl)-[1,2,4]triazolo[1,5-a]pyridin-5-yl]benzonitrile] had an IC50 of 0.04 µM.

`Fc1cc(Cl)ccc1-c1cccc2ncnn12` [Example 9, 5-(4-chloro-2-fluorophenyl)-[1,2,4]triazolo[1,5-a]pyridine] showed an IC50 of 0.307 µM.

`Cc1nc(C#N)ccc1-c1c(F)ccc2ncnn12` [Example 229, 5-{6-Fluoro-[1,2,4]triazolo[1,5-a]pyridin-5-yl}-6-methylpyridine-2-carbonitrile]: the IC50 was 3.66 µM.

Take `COCCC(=O)Nc1cc(-c2ccc(C#N)cc2)n2ncnc2c1` [Example 151, N-[5-(4-cyanophenyl)-[1,2,4]triazolo[1,5-a]pyridin-7-yl]-3-methoxypropanamide]: 0.047 µM corresponded to half-maximal inhibition (IC50).
